For test [1], the system named is Mycobacterium tuberculosis (H37RvMa). In kind it is cell-based. The settings on record: versus compound 1.
Test [2] concerns the target BCG_3193 (Rv3169) (Mycobacterium bovis BCG, UniProt A0A1R3Y3B6). The test is classed as binding.
The subject of test [3] is BCG_3827 (Rv3768). The test is classed as binding, Mycobacterium bovis BCG.

By UniProt entry, the sequences of proteins in these tests, tags left out. Residues count along the entry.
UniProt A0A1R3Y3B6, 1-374: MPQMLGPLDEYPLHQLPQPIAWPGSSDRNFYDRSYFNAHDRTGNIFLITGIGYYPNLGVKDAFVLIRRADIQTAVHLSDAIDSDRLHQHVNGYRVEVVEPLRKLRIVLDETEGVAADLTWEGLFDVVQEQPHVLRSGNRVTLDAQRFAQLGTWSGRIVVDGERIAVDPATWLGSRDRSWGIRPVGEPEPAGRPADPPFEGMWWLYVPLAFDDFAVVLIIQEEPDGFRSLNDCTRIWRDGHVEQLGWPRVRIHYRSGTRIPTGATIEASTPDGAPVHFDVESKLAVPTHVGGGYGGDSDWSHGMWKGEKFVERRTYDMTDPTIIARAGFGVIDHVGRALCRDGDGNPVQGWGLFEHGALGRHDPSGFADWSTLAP

Where only a bound is given, the exact number is not on record here.

As for `CN(Cc1ccc(C(F)(F)F)cc1)c1cc(C(=O)Nc2ccccc2)ncn1` [Compound 12, 6-(Methyl(4-(trifluoromethyl)benzyl)amino)-N-phenylpyrimidine-4-carboxamide], the “fold more potent in 7H9/ADC compared to 1” value in test [1] (7H9/ADC medium) is reported as not below 4 fold. Also, the “fold more potent in GAST/Fe compared to 1” value in test [1] (GAST/Fe medium) is recorded as not below 2 fold.

Consider `CN1CCN(c2ccc(NC(=O)c3cc(N(C)Cc4ccc(C(F)(F)F)cc4)ncn3)cc2)CC1` [Compound 40, 6-(Methyl(4-(trifluoromethyl)benzyl)amino)-N-(4-(4-methylpiperazin-1-yl)phenyl)pyrimidine-4-carboxamide], for which, in test [2], the “relative abundance, compound competition 0.029 µM 40” value was 0.92; the “relative abundance, compound competition 0.117 µM 40” value was 1.15; the “relative abundance, compound competition 0.47 µM 40” value came to 0.76; the “relative abundance, compound competition 1.88 µM 40” value was determined as 0.30. In test [2], the “relative abundance, compound competition 7.5 µM 40” value stood at 0.12 and the “relative abundance, compound competition 30 µM 40” value turned out to be 0.074. Besides, in test [3], the “relative abundance, compound competition 0.029 µM 40” value was 0.93; the “relative abundance, compound competition 0.117 µM 40” value is given as 1.08; the “relative abundance, compound competition 0.47 µM 40” value was 0.95; the “relative abundance, compound competition 1.88 µM 40” value amounted to 0.86. Also, in test [3], the “relative abundance, compound competition 7.5 µM 40” value is reported as 0.71 and the “relative abundance, compound competition 30 µM 40” value is given as 0.35.

(Values after paper PMC5748279, “Novel Antitubercular 6-Dialkylaminopyrimidine Carboxamides from Phenotypic Whole-Cell High Throughput Screening of a SoftFocus Library: Structure–Activity Relationship and Target Identification Studies” (Journal of Medicinal Chemistry, 2017).)
